This is a sample that favours compounds with a hit; in the whole collection about 1% have one here.
Rtt109 Vps75 – inhibitors of C. albicans Rtt109/Vps75 HAT, primary screen, biochemical, ThioGlo CoA-SH fluorescence, plate reader. inhibition, % at 34.9 µM. 0.16% of 330,000 active. purified Rtt109/Vps75, 4 h. Histone acetyltransferase RTT109 (Candida albicans (strain SC5314 / ATCC MYA-2876)), …;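 active means inhibition of at least 50% in every replicate; inconclusive means best replicate reaches 50% inhibition but some replicates fall short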
C2C12 statin – suppressors of statin myotoxicity in C2C12 myotubes, primary screen, cell-based, single point, plate reader; AID 602340, 2012; 0.78% of 330,000 active; C2C12 myotubes + simvastatin, ATP luminescence, 48 h; scaled: DMSO 0, geranylgeraniol control 100; rescue of ATP level, % at 7.49 µM;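 active means mean ATP rescue above about 67%, or every replicate alone reaching that limit, limit read from the data, passing the limit was not always enough; inconclusive means no clear call, values can overlap the other calls; inactive means mean under the limit and some replicate under it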;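 further: myotubes were challenged with 10 µM simvastatin during compound exposure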
Cneo AK release – Cryptococcus neoformans cell lysis inducers, primary screen, AK release luminescence, single concentration; AID 651654, 2012; 0.2% of 360,000 active; lysis activity, % at 15 µM; C. neoformans lysis, adenylate kinase release luminescence, 4 h; normalised: neutral wells 0, clomiphene wells 100;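 active means mean lysis activity across replicates of at least 80%, whatever share of replicates individually reach that level; inactive means mean lysis activity below 80%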
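Material: C. neoformans cells | Amount: Yeast cell density of 5 × 10^6 cells/mL | Medium: Fresh YPD growth medium | Dosing: Single dose | Times: Static 4 h at 37 °C with compound, 1 h detection | Detection: AK luminescence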
UUG fidelity – alters start codon recognition fidelity in yeast | S. cerevisiae UUG-firefly luciferase reporter, luminescence/redox ratio | activity score, % at 18.7 µM | 350,000 compounds, 0.13% hits | AID 602363;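 active = replicate mean at a twofold rise or more, about +100% in these data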;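 note: firefly luciferase made from a UUG start codon reports start codon fidelity; reporter light over untreated wells divided by growth signal over untreated wells; some hits fall short of that in this replicate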
CDK5 inh – inhibitors of human CDK5/p35 kinase, primary screen, biochemical, single concentration. Cyclin-dependent kinase 5 (Homo sapiens) + Cyclin-dependent kinase 5 activator 1 (Homo …. Recombinant CDK5/p35, ADP-Glo luminescence, 60 min. inhibition, % at 10 µM. 0.01% of 330,000 active. AID 488839, 2010;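 active means highest replicate inhibition of at least 50% and at least 75% of replicates reaching 50%; inconclusive means only one of the two criteria met; inactive means both criteria failed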;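 further: plate controls were DMSO neutral control for no effect and GW8510 at 10 µM for full effect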
* hit, by the source's call; ! = a repeat was not active.

`O=C1N2CCCc3cccc(c32)C12Nc1ccccc1S2` (configuration not stated) gave Rtt109 Vps75 12.8, C2C12 statin 152.5*, Cneo AK release 8.7, UUG fidelity -18.7 and CDK5 inh 1.5.
CCCOc1cc(C)c(Cl)cc1S(=O)(=O)N(CC)CC was read as Rtt109 Vps75 5.2, C2C12 statin 108.5*, Cneo AK release 1.6, UUG fidelity -13.6 and CDK5 inh 0.0.
Screening CCOc1cc(C)c(Cl)cc1S(=O)(=O)N1CCCC1 returned Rtt109 Vps75 -2.6, C2C12 statin 80.8*, Cneo AK release -1.2, UUG fidelity -15.4 and CDK5 inh -0.5.
CCOc1cc(C)c(Cl)cc1S(=O)(=O)NCc1ccco1 was read as Rtt109 Vps75 7.5, C2C12 statin -15.1, Cneo AK release 0.0, UUG fidelity 309.7* and CDK5 inh -0.2.
Screening COc1cc(C)c(Cl)cc1S(=O)(=O)NCc1ccco1 returned Rtt109 Vps75 -4.1, C2C12 statin 5.9, Cneo AK release -0.1, UUG fidelity -12.6 and CDK5 inh -0.3.
`COc1ccc(NC(=O)N(C)C[C@@H]2Oc3ccc(N(C)C)cc3CC(=O)N([C@H](C)CO)C[C@@H]2C)cc1` gave C2C12 statin -9.6 and Cneo AK release 1.2.
For CC=Cc1ccc2n(c1=O)C[C@@H]1[C@@H](CO)[C@H](C(=O)NCc3ccccn3)[C@H]2N1CCC (mixture of isomers) the results were C2C12 statin -3.0 and Cneo AK release -1.2.
C[C@H]1CN([C@@H](C)CO)S(=O)(=O)c2ccc(/C=C/c3ccccc3)cc2O[C@H]1CN(C)C(=O)CN1CCOCC1 was read as C2C12 statin 13.0.
CC1(C)CC(=O)C2=C(C1)c1c(ccc3ccccc13)NC2c1ccc(Br)o1 (configuration not stated) was read as Rtt109 Vps75 -9.0, C2C12 statin 106.8*, Cneo AK release -1.3, UUG fidelity -20.8 and CDK5 inh -0.5.
For CS(=O)(=O)Nc1ccc2c(c1)[C@H]1C[C@H](CC(=O)NCc3ccccn3)O[C@H](CO)[C@H]1O2 the results were C2C12 statin -1.6 and Cneo AK release -18.3.
`Cc1ccc(S(=O)(=O)Nc2ccc3c(c2)C(=O)N([C@H](C)CO)C[C@H](C)[C@H](CN(C)Cc2ccc(C(=O)Nc4ccccc4N)cc2)O3)cc1` gave C2C12 statin 81.9*, Cneo AK release -0.6 and UUG fidelity 12.8.
Cc1ccc(S(=O)(=O)Nc2ccc3c(c2)C(=O)N([C@@H](C)CO)C[C@H](C)[C@H](CN(C)Cc2ccc(C(=O)Nc4ccccc4N)cc2)O3)cc1 was read as C2C12 statin inconclusive, Cneo AK release -1.7 and UUG fidelity 15.4.
Cc1ccc(S(=O)(=O)Nc2ccc3c(c2)C(=O)N([C@H](C)CO)C[C@H](C)[C@H](CN(C)Cc2ccccc2)O3)cc1 was read as C2C12 statin 0.0 and Cneo AK release -2.5.
Cc1ccc(S(=O)(=O)Nc2ccc3c(c2)C(=O)N([C@H](C)CO)C[C@H](C)[C@@H](CN(C)Cc2ccccc2)O3)cc1 was read as Rtt109 Vps75 25.5, C2C12 statin 17.6, Cneo AK release 100.2*!, UUG fidelity 3.8 and CDK5 inh -1.5.
CNC[C@@H]1Oc2ccc(NS(=O)(=O)c3ccc(Cl)cc3)cc2C(=O)N([C@H](C)CO)C[C@H]1C was read as C2C12 statin 13.2, Cneo AK release 107.7* and UUG fidelity 13.6.
CO[C@@H]1CN(C)C(=O)c2ccc(NC(=O)C3CC3)cc2OC[C@H](C)N(C)C[C@H]1C was read as C2C12 statin 2.6, Cneo AK release -21.3 and UUG fidelity -1.7.
`C[C@H](CO)N1C[C@H](C)[C@H](CN(C)C(=O)Cc2ccccn2)Oc2ncc(-c3ccc(F)cc3)cc2C1=O` gave C2C12 statin -1.5 and Cneo AK release -9.6.
O=C(CCN1CCc2ccccc2C(c2ccccc2)C1)c1ccc2c(c1)OCCO2 (configuration not stated) was read as Rtt109 Vps75 14.0 and CDK5 inh -0.8.
`O=C(CCN1Cc2ccccc2C1)c1ccc2c(c1)OCCO2` gave Rtt109 Vps75 100.0*, C2C12 statin 2.6, Cneo AK release 3.2, UUG fidelity -3.4 and CDK5 inh -1.5.
`Cc1cc(=O)[nH]c(SCC(=O)NC2CCCCCC2)n1` gave Rtt109 Vps75 3.3, C2C12 statin 72.1*, Cneo AK release 0.3, UUG fidelity -24.5 and CDK5 inh 0.3.
Screening CSc1nsc(SCC(=O)NC2CCCCC2)n1 returned Rtt109 Vps75 16.3, C2C12 statin 68.9*, Cneo AK release -2.0, UUG fidelity -8.0 and CDK5 inh 0.0.
Cc1cc(=O)[nH]c(SCC(=O)NC2CCCCCCC2)n1 was read as Rtt109 Vps75 -3.6, C2C12 statin 6.1, Cneo AK release 5.0, UUG fidelity -10.6 and CDK5 inh -1.2.
Screening CC=Cc1ccc2n(c1=O)C[C@H]1[C@H](CO)[C@@H](C(=O)NCc3ccccc3F)N(CCC)[C@@H]21 (mixture of isomers) returned C2C12 statin 18.4 and Cneo AK release -3.5.
`CNC(=O)C[C@H]1CC[C@@H]2[C@H](COC[C@@H](O)CN2C(=O)c2ccccn2)O1` gave C2C12 statin -8.7, Cneo AK release -0.2 and UUG fidelity -5.6.
`Cc1cccc(C)c1NC(=O)c1nc(S(=O)(=O)Cc2ccccc2)ncc1Cl` gave Rtt109 Vps75 inconclusive, C2C12 statin 134.7*, Cneo AK release 5.6, UUG fidelity -9.9 and CDK5 inh -1.5.
`O=C(O)c1ccc(/C=N/Nc2ccc(C(F)(F)F)cn2)cc1` gave Rtt109 Vps75 9.4 and CDK5 inh 56.9*.
For CCc1ccc(CCC(=O)Nc2sc(C)c(C)c2C(=O)OC)o1 the results were Rtt109 Vps75 -4.4, C2C12 statin 94.1*, Cneo AK release -3.3, UUG fidelity 13.0 and CDK5 inh 0.1.
For COc1ccc(S(=O)(=O)Nc2ccc3c(c2)[C@@H]2C[C@H](CC(=O)NCC4CC4)O[C@H](CO)[C@@H]2O3)cc1 the results were C2C12 statin -7.1 and Cneo AK release -1.2.
`CC(=O)N(C)C[C@@H]1Oc2ncc(C#C[C@@H](C)O)cc2C(=O)N([C@H](C)CO)C[C@H]1C` gave C2C12 statin 3.1, Cneo AK release -2.8 and UUG fidelity -15.1.
`CCC(C)SCc1nc2ccccc2[nH]1` (configuration not stated) gave Rtt109 Vps75 -1.9, C2C12 statin 121.0* and CDK5 inh -2.0.

Molecules shown so far containing an aryl thioether with sulfur outside any ring, in the order listed:
`Cc1cc(=O)[nH]c(SCC(=O)NC2CCCCCC2)n1` gave Rtt109 Vps75 3.3, C2C12 statin 72.1*, Cneo AK release 0.3, UUG fidelity -24.5 and CDK5 inh 0.3.
Screening CSc1nsc(SCC(=O)NC2CCCCC2)n1 returned Rtt109 Vps75 16.3, C2C12 statin 68.9*, Cneo AK release -2.0, UUG fidelity -8.0 and CDK5 inh 0.0.
Cc1cc(=O)[nH]c(SCC(=O)NC2CCCCCCC2)n1 was read as Rtt109 Vps75 -3.6, C2C12 statin 6.1, Cneo AK release 5.0, UUG fidelity -10.6 and CDK5 inh -1.2.

Compound activity deposited in PubChem BioAssay by Broad Institute.
